In patent US20240132593A1 (published 2024) one finds EC50 data, which are given here for 2 molecules.

Chains of the proteins cited; added tags and fusions are not shown. Residues count along the entry.
UniProt P55899, 24-297, chain 1 of 2: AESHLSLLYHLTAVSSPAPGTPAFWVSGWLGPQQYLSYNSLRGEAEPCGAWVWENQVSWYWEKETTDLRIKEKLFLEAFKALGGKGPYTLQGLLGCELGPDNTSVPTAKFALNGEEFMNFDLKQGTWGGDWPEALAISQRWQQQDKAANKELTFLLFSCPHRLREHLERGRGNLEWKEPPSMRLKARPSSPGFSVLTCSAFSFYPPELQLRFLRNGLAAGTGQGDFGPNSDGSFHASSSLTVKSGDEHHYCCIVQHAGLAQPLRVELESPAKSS

Assay [1] concerns the target FcRn receptor (biotinylated, AlphaLisa binding kit Perkin Elmer #AL3095C) (UniProt P55899, in part; P61769, in part, biotinylated (sites not given)). Nature of the assay: AlphaLISA FcRn binding assay.
Assay [2] has as its target T1, immunoglobulin gamma Fc receptor 1 (FcγR1) (biotinylated, AlphaLisa binding kit Perkin Elmer #AL3081C) (UniProt P12314 16-288, biotinylated (sites not given)).
T1 chain: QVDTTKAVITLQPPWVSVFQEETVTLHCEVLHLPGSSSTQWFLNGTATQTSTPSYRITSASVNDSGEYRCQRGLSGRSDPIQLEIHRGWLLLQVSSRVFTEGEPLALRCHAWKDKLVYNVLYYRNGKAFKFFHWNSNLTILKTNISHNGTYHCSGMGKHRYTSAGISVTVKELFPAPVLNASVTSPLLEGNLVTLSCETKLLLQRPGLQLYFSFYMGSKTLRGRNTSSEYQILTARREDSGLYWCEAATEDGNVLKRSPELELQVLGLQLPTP
The experiment in a line: AlphaLISA FcγR1 binding assay.

Values joined by “and” are separate entries in the source; they are usually repeats but may differ in a detail not shown here. Equal values may be shown once.

B1: Ab No. 289.4(LS) (antibody)
chain 1: MGWSCIILFLVATATGVHSQLQLQESGPGLVKPSETLSLTCIVSGGSISSSGYYWGWIRQPPGKGLEWIGSIFYSGNTHYNPSLKSRVTIPVDTSKNQFSLKLSSVTAADSAVYYCARRDILTGPFDYWGQGTLVTVSSAASTKGPSVFPLAPCSRSTSESTAALGCLVKDYFPEPVTVSWNSGALTSGVHTFPAVLQSSGLYSLSSVVTVPSSSLGTKTYTCNVDHKPSNTKVDKRVESKYGPPCPSCPAPEFLGGPSVFLFPPKPKDTLMISRTPEVTCVVVDVSQEDPEVQFNWYVDGVEVHNAKTKPREEQFNSTYRVVSVLTVLHQDWLNGKEYKCKVSNKGLPSSIEKTISKAKGQPREPQVYTLPPSQEEMTKNQVSLTCLVKGFYPSDIAVEWESNGQPENNYKTTPPVLDSDGSFFLYSRLTVDKSRWQEGNVFSCSVLHEALHSHYTQKSLSLSLGK
chain 2: MGWSCIILFLVATATGVHSDIQMTQSPSSLSASVGDRVTITCQASQDITNYLTWYQQKPGNAPKLLIYDASNLETGVPSRFSGSGSGTDFTFTINSLQPEDVATYFCQQYDNLPTFGGGTKVEIKRTVAAPSVFIFPPSDEQLKSGTASVVCLLNNFYPREAKVQWKVDNALQSGNSQESVTEQDSKDSTYSLSSTLTLSKADYEKHKVYACEVTHQGLSSPVTKSFNRGEC
As to B1, the EC50 in assay [1] is 0.284 nM and 0.0426 µg/mL.

B2: Ab No. 289.4 (LS) (antibody)
chain 1: B1 chain 1
chain 2: B1 chain 2
Consider B2, for which, in assay [2], the EC50 was 9 nM and 1.39 µg/mL.
